Values of other authors as cited in patent US12685756B2, “Methods of treating disease with Terlipressin” (BIOVIE INC., priority 2022, dated 2026).

Target: vasopressin type 2 receptors (Homo sapiens, UniProt P30518)
Conditions: relative to AVP; cited from earlier work

## 8-lysine vasopressin [8-LVP]
  binding affinity for vasopressin type 2 receptors, fold less than AVP: approximately 12 fold
